This passage reports inhibition results from PubChem BioAssay AID435028 (The Scripps Research Institute Molecular Screening Center, 2010).

The chains behind the UniProt entries cited, without tags or fusion partners.
UniProt P14735, whole entry, looked up: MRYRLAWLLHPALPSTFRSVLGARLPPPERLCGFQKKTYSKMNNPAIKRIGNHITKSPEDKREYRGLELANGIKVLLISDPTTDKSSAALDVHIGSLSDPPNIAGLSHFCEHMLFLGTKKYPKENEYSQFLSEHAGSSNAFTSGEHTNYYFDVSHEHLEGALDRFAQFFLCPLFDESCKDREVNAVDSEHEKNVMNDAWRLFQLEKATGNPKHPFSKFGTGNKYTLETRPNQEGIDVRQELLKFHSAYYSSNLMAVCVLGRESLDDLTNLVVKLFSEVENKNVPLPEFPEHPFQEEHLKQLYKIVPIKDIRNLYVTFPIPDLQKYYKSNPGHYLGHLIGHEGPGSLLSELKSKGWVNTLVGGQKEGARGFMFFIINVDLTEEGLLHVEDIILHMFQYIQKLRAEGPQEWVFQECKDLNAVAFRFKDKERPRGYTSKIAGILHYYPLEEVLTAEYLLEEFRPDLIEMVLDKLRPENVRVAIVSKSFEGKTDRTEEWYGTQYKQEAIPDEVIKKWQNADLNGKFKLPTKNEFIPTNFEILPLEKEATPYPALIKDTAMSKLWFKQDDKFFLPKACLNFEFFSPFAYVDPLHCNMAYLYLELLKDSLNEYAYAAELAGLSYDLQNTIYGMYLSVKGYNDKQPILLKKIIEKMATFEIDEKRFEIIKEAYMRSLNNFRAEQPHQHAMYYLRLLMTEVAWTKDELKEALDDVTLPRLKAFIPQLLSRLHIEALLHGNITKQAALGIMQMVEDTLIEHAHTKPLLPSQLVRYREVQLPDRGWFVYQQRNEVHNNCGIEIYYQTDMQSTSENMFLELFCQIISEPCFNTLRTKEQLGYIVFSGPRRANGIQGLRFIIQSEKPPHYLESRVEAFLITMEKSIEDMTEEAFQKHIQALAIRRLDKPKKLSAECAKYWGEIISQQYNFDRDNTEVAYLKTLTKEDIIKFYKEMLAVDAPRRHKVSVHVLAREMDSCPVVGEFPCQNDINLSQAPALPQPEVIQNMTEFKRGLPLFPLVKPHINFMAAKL

The entries are a selection whose mix differs from that of the whole data set. Calls of active or inactive are those of the source.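 Rule for the calls: active = mean inhibition across triplicate wells above the cutoff set by the earlier primary insulin-degrading enzyme screen (cut at about 16% in these data); inactive = the rest.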

This assay deals with Insulin-degrading enzyme (Homo sapiens) (UniProt P14735). In words: human IDE inhibitors in live cells, confirmation, fluorescence polarization, HEK cells, FAbetaB substrate (AID 435028).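 Note: 0% = DMSO wells and 100% = 60 µM reference IDE inhibitor Ii1.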 The note with it: FAbetaB cleavage, at 5.59 µM, hits give high values. Background: In fluorescence polarisation assays a small probe gives low polarisation when free and higher when bound to something large.
As for `O=c1c2ccccc2[se]n1-c1ccccc1`, the inhibition (as a rule, the relative decrease from the control value, in per cent) was active: 33.8%.
